From US20240132480A1, “INHIBITORS OF MYCOBACTERIUM TUBERCULOSIS LIPOAMIDE DEHYDROGENASE” (Cornell University, priority 2021, published 2024)

Tests used:
[1] = Microsomal clearance (hLM); details: in vitro ADME-tox profiling, in words
mouse BMDM = test: Toxicity to BMDM by MTS assay; details: any concentration tested

| Structure (SMILES) | microsomal clearance [1] | toxicity to mouse BMDM (mouse BMDM) |
| --- | --- | --- |
| COc1ccc(NC(=O)CN(C)S(=O)(=O)c2cc(C)cc3cn[nH]c23)cc1Cl [Example 1, N-(3-chloro-4-methoxyphenyl)-2-((N,5-dimethyl-1H-indazole)-7-sulfonamido)acetamide] | rapid microsomal clearance |  |
| Cc1cc(S(=O)(=O)N(C)CC(=O)Nc2ccn(C)c(=O)c2)c2[nH]ncc2c1 [Example 24, 2-((5-chloro-N-methyl-1H-indazole)-7-sulfonamido)-N-(1-methyl-2-oxo-1,2-dihydropyridin-4-yl)acetamide] |  | No toxicity was observed |
